Earlier results on 1 molecule are cited in patent publication US8088734B2, “Oral delivery of peptides” (Unigene Laboratories Inc., priority 2003, dated 2012).

For one series, the system named is ovariectomized rat model. Particulars: cited from earlier work.
For a further series, the system named is adenylyl cyclase (AC). Particulars: cited from earlier work.

With `CC[C@H](C)[C@H](NC(=O)[C@H](CCC(=O)O)NC(=O)[C@H](CO)NC(=O)[C@@H](NC(=O)[C@@H](N)CO)C(C)C)C(=O)N[C@@H](CCC(N)=O)C(=O)N[C@@H](CC(C)C)C(=O)N[C@@H](CCSC)C(=O)N[C@@H](Cc1c[nH]cn1)C(=O)N[C@@H](CC(N)=O)C(=O)N[C@@H](CC(C)C)C(=O)NCC(=O)N[C@@H](CCCCN)C(=O)N[C@@H](Cc1c[nH]cn1)C(=O)N[C@@H](CC(C)C)C(=O)N[C@@H](CC(N)=O)C(=O)N[C@@H](CO)C(=O)N[C@@H](CCSC)C(=O)N[C@@H](CCC(=O)O)C(=O)N[C@@H](CCCNC(=N)N)C(=O)N[C@H](C(=O)N[C@@H](CCC(=O)O)C(=O)N[C@@H](Cc1c[nH]c2ccccc12)C(=O)N[C@@H](CC(C)C)C(=O)N[C@@H](CCCNC(=N)N)C(=O)N[C@@H](CCCCN)C(=O)N[C@@H](CCCCN)C(=O)N[C@@H](CC(C)C)C(=O)N[C@@H](CCC(N)=O)C(=O)N[C@@H](CC(=O)O)C(=O)N[C@H](C(N)=O)C(C)C)C(C)C` [PTH1-31NH2], the “restoration of bone loss” value with ovariectomized rat model is on record as “fully active”. Also, in the series on adenylyl cyclase (AC), the second messenger activity entry was “only AC-stimulating activity”.
